Experimental findings from patent US11071731B2, “Allosteric modulators of the mu opioid receptor” (Chiromics, LLC, priority 2017, dated 2021) are described below.

Chains of the proteins cited; added tags and fusions are not shown.
UniProt P35372, whole entry: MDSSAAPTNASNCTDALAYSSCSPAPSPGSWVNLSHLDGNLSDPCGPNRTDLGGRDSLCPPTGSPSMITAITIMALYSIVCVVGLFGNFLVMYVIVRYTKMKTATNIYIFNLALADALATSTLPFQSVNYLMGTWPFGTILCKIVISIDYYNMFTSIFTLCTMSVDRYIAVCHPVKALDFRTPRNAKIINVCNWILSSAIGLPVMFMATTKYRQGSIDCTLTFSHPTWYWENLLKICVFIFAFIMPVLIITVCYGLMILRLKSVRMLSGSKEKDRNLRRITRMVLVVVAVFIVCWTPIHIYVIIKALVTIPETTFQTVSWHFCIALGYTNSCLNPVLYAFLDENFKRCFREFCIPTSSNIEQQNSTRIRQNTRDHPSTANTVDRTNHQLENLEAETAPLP

The target in assay [1] is T1, mu opioid receptor (MOR) (Homo sapiens, UniProt P35372). Kind of assay: Hit Hunter cAMP signaling assay (adenylyl cyclase inhibition), PAM mode with EC20 endomorphin-1. Type of assay: cell-based. The note with it: for EC50: read-out: cAMP EC50, adenylyl cyclase inhibition.
Assay [2] addresses T1, mu opioid receptor (MOR). Kind of assay: PathHunter β-arrestin recruitment assay, PAM mode with EC20 endomorphin-1. The note with it: for EC50: read-out: β-arr. EC50, β-arrestin recruitment. (Activated receptors often draw arrestin, which recruitment assays turn into a signal.)
Where [3] appears, read: maximal response for adenylyl cyclase inhibition.
Where [4] appears, read: maximal response for β-arrestin recruitment.

Usually EC50 stands for the concentration needed to bring the measured effect to its halfway point. As for `CCNc1cccc(C2CCCCN2Cc2cc(Cl)ccc2F)n1` (stereo not shown), the “cAMP Max. Resp.” value in assay [1] (setting [3]) is recorded as “D (D represents a maximal response of < 40%)”. The EC50 in assay [1] and in assay [2] was over 2100 nM each time. In addition, the “β-arr Max. Resp.” value in assay [2] (setting [4]) is given as “D (D represents a maximal response of < 40%)”.

As to `Fc1cc(C2CC(F)(F)CN2c2nc(Cl)ncc2F)cc(C(F)(F)F)c1` (stereo not shown), the “cAMP Max. Resp.” value in assay [1] (setting [3]) is “F (F represents a maximal response of > 60%)”. The “cAMP Max Resp.” value in assay [1] (maximal response for adenylyl cyclase inhibition, Table 3) is given as 66. For the same molecule, the EC50 in assay [1] is under 700 nM; in assay [1] (Table 3), 409 nM; in assay [2], over 2100 nM; in assay [2] (Table 3), 11800 nM. The “β-arr Max. Resp.” value in assay [2] (setting [4]) is “F (F represents a maximal response of > 60%)”. In addition, the “β-arr. Max Resp.” value in assay [2] (maximal response for β-arrestin recruitment, Table 3) came to 305.

For `Fc1ccc(C2CC(F)(F)CN2c2nc(Cl)ncc2F)cc1Cl` (stereo not shown), in assay [1] (setting [3]), the “cAMP Max. Resp.” value is recorded as “E (E represents a maximal response of 40-60%)”. Further, the EC50 in assay [1] is 700 to 2100 nM; in assay [2], over 2100 nM. Besides, the “β-arr Max. Resp.” value in assay [2] (setting [4]) is “F (F represents a maximal response of > 60%)”.
